Protein sequences, listed by entry. Tags and fused reporters are not part of them. Lines headed by an entry give the natural chain unless they say otherwise; changes in a name come on top.
UniProt P22888: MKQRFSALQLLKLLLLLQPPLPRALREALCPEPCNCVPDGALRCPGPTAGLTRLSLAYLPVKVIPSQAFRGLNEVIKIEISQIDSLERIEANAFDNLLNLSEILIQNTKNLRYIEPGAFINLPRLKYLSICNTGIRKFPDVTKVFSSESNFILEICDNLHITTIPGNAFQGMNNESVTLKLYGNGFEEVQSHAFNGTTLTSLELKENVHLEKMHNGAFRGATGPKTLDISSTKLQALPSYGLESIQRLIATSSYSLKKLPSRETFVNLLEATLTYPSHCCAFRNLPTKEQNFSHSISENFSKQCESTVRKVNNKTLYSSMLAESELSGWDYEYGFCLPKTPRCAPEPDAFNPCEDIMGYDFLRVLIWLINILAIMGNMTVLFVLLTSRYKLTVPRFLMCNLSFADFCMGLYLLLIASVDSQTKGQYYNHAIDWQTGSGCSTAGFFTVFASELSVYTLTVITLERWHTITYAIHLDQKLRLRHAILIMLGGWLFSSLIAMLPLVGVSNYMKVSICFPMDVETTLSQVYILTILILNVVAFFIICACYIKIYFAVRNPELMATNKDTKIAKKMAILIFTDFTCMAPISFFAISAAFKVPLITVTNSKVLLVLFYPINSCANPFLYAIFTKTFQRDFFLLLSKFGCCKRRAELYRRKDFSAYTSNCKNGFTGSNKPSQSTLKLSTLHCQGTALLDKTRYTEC

In ChEMBL document CHEMBL1138049, “Evaluation of small-molecule modulators of the luteinizing hormone/choriogonadotropin and thyroid stimulating hormone receptors: structure-activity relationships and selective binding patterns” (J Med Chem, 2006):

Target: Lutropin-choriogonadotropic hormone receptor (Homo sapiens) (UniProt P22888)
Assay: Agonist activity at LHCGR expressed in HEK293 EM cells measured by intracellular cAMP accumulation relative to LH
Type: functional, cell-based
In short: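 Human LHCGR stably expressed in HEK 293 EM cells, cultured 48 h, then incubated 1 h in serum-free DMEM with 1 mM IBMX and compound (0-100 µM) at 5% CO₂. Cells were lysed and cAMP measured by enzyme immunoassay. EC50 and 95% CI came from dose-response curves. Efficacy is % of maximal response to human LH (1000 ng/ml). Two independent experiments, each in duplicate.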

Efficacy: 51.1%
Compound: CSc1nc(-c2cccc(F)c2)c2c(N)c(C(=O)NC(C)(C)C)sc2n1
